Values quoted from earlier work, collected in PMC7618119.
This is a selection: effects in other tests are not listed, and their absence says nothing.

Test system: P-glycoprotein
Settings: 2007, Yu et al., 2018, cited from earlier work; for P-glycoprotein substrate: ref Dagenais et al., 2004, Kalvass et al., F. Martins et al., 2023

| Structure (SMILES) | Increase in brain levels (pharmacological blockade or genetic deletion of P-glycoprotein, ref Kalvass et al.) | P-glycoprotein substrate |
| --- | --- | --- |
| CCC(=O)N(c1ccccc1)C1(COC)CCN(CCn2nnn(CC)c2=O)CC1 | threefold | substrates for P-glycoprotein-mediated extrusion from the brain |
| CCC(=O)N(c1ccccc1)C1CCN(CCc2ccccc2)CC1 | – | substrates for P-glycoprotein-mediated extrusion from the brain |
